In ChEMBL document CHEMBL1687894, “Design, synthesis and evaluation of 3-methylene-substituted indolinones as antimalarials” (Eur J Med Chem, 2011):

System: Plasmodium falciparum
Assay: Antiplasmodial activity against chloroquine-resistant Plasmodium falciparum W2 infected in human red blood cells assessed as inhibition of ring-stage parasite growth after 48 hrs by flow cytometry
Assay type: functional, organism-based
Conditions: W2, 48 h

## CC(C)C[C@H](NC(=O)[C@H]1O[C@@H]1C(=O)O)C(=O)NCCCCN=C(N)N [E-64]
  IC50: 1940 nM
